Experimental data published in paper PMC3397408, “Natural and synthetic cathelicidin peptides with anti-microbial and anti-biofilm activity against Staphylococcus aureus” (BMC Microbiology, 2011).
Read-outs that look alike come from different tables or passages of the source.

Key:
S. aureus (ATCC 25923) = system: S. aureus (ATCC 25923)
Description: S. aureus (ATCC 25923, American Type Culture Collection, Manassas, VA) was grown in Nutrient Broth (Difco Laboratories, Detroit, Mich.) at pH 7, 37°C, 24 h with shaking at 200 rpm. The overnight culture was frozen with 20% glycerol and stored at -80°C. The frozen stock was enumerated (CFU/ml) by dilution plating and growth on Nutrient Agar plates.
For anti-microbial assays, frozen enumerated aliquots were thawed and gently mixed immediately before use. In a 96-well plate (BD Falcon 353072), 1 × 10^5 CFU per well bacteria were incubated with different peptide concentrations (in serial dilutions of 1:10 across the plate) in a solution of buffer containing sterile 10 mM sodium phosphate (pH 7.4) and incubated (3 h, 37°C). Negative control wells contained bacteria with no peptide. Serial dilutions were then carried out in sterile 1x PBS (Fisher Scientific) (pH 7) and plated in triplicate on Nutrient Agar plates, incubated (37°C, 24 h) and counted. […] The EC50 was calculated as previously described.
Each experiment was repeated at least twice, and a representative experiment is shown, for clarity. Errors were reported based on the standard deviation from the mean of the log10 EC50 values. 95% confidence intervals were used to determine whether points were statistically different at p = 0.05.

[1] = system: S. aureus biofilm formation; settings: peptide 10 μg/ml, TSB, 24 h, 37°C, polystyrene 96-well plate, crystal violet 570 nm, n = 6, relative to 0 peptide control
Description: (§1) C. […] Growth (absorbance at 600 nm) is indicated by gray bars with "0 peptide" control set to 100%. Biofilm detection on a polystyrene 96-well plate at 37°C after 24 h of growth in TSB was detected as the absorbance of crystal violet stain (570 nm). Percent biofilm production is indicated by black bars (n = 6), relative to "0 peptide" control. Each experiment is a representative of at least two independent trials. Error bars indicate the standard deviation from the mean. The asterisk (*) indicates statistically different than the positive control (p < 0.01).
(§2) Biofilm production was measured as previously described with the following modifications. […] The positive control is S. aureus in TSB with no peptide. Six wells were used for each peptide concentration (n = 6). After 24 h, the optical densities (OD) of the wells were taken at 600nm to quantify […]. The biofilm production was measured using the crystal violet stain technique.
All experiments were repeated at least twice, with a representative experiment shown.

[2] = system: S. aureus attachment to 96-well plate; assay: Biofilm attachment assay; assay type: cell-based, Staphylococcus aureus; settings: peptide 1 μg/ml, 1 h, 37°C, TSB culture OD600 ~1.0, n = 16, Student's t test
Description: The attachment of Staphylococcus spp. to solid surfaces is largely seen as an essential step in the formation of biofilm. Since most of the peptides tested in our biofilm assays were capable of inhibiting biofilm formation (except for scrambled LL-37), we investigated a possible mechanism for this action. We incubated scrambled LL-37 (negative control), LL-37, D-LL-37, NA-CATH, and NA-CATH:ATRA1-ATRA1 peptides with S. aureus in a 1 hr attachment assay at peptide concentrations of 1 ug/ml, examining for the initial adherence to the wells of the 96 well tissue-culture treated plate.
Figure 3 Attachment assay of S. aureus in the presence of peptide. We tested scrambled LL-37 (negative control), LL-37, D-LL-37, NA-CATH, and NA-CATH:ATRA1-ATRA1 against S. aureus (1 h, 37°C) at 1 μg/ml, only allowing for the initial adherence to the wells.
Biofilm attachment assays were performed in a 96-well microtiter plate (BD Falcon 353072), as previously described. Overnight cultures of S. aureus were grown in TSB to an optical density (600nm) of ~1.0. 200 μl culture was added to the wells, followed by no peptide, scrambled LL-37 , LL-37, D-LL-37, NA-CATH, or NA-CATH:ATRA1-ATRA1 at 1 μg/ml. […] The wells were washed and OD600 measurements were taken, as in the biofilm production experiments, and the average absorbance for each treatment was determined (n = 16).

S. aureus = assay: Bacterial growth / MIC in TSB; assay type: cell-based, Staphylococcus aureus; settings: TSB (relatively high salt), peptide concentrations up to the EC50 found in 10 mM sodium phosphate
Description: as §1, §2

2% horse erythrocytes = settings: peptide up to 100 μg/ml in 10 mM sodium phosphate, 1 h, 37°C, n = 12, compared to PBS
Description: The hemolytic activity of each of the peptides was determined using 2% horse erythrocytes as previously described.
Hemolytic activities of the peptides were determined using equine erythrocytes (Hema Resource Inc., Eugene, OR, USA) in an assay adapted to a microtiter plate format. Briefly, erythrocytes were prepared by centrifuging 1 ml fresh defibrinated blood (1620 × g, 10 min), re-suspending the pelletted cells in 1 ml sterile PBS (Fisher Scientific) (pH 7). The cells were washed with PBS three times; in the final wash the cells were re-suspended in 0.75 ml PBS. From this, a 2% erythrocyte suspension was prepared for the assay. Aliquots of sterile water (positive control), peptide, and PBS (negative control) were used in a microtiter plate. Various peptide concentrations in sterile 10 mM sodium phosphate (0.1, 1, 10, 100 μg/ml) were tested in n = 12. The assay was then incubated (1 h, 37°C). After centrifugation (1000 × g, 10 min), aliquots of supernatant were carefully transferred to a new microtiter plate and the absorbance was obtained for each well. Percent hemolysis was calculated as previously described.

[3] = EC50 in μg/ml converted with the molecular weight of the TFA salt of the peptide
[4] = S. aureus ATCC 25923, 1 × 10^5 CFU per well, 3 h, 37°C, 10 mM sodium phosphate (pH 7.4), % survival by CFU counts, plated in triplicate, representative experiment

CC[C@H](C)[C@H](NC(=O)[C@@H](NC(=O)[C@H](CCCCN)NC(=O)[C@@H]1CCCN1C(=O)[C@H](CCCCN)NC(=O)[C@H](CCCCN)NC(=O)[C@H](Cc1ccccc1)NC(=O)[C@H](Cc1ccccc1)NC(=O)[C@H](CCCCN)NC(=O)[C@H](CCCCN)NC(=O)[C@H](C)NC(=O)[C@H](CCCNC(=N)N)NC(=O)[C@H](CCCCN)NC(=O)[C@H](CCCCN)NC(=O)[C@@H](NC(=O)[C@H](CO)NC(=O)[C@H](CC(N)=O)NC(=O)[C@H](CCCCN)NC(=O)[C@H](CC(C)C)NC(=O)[C@H](CCCCN)NC(=O)[C@H](CCCCN)NC(=O)[C@H](Cc1ccccc1)NC(=O)[C@H](Cc1ccccc1)NC(=O)[C@H](CCCCN)NC(=O)[C@H](CCCCN)NC(=O)[C@H](Cc1ccccc1)NC(=O)[C@H](CCCNC(=N)N)NC(=O)[C@@H](N)CCCCN)C(C)C)C(C)C)C(=O)NCC(=O)N[C@H](C(=O)N[C@H](C(=O)N[C@@H](Cc1ccccc1)C(=O)N1CCC[C@H]1C(=O)N[C@@H](Cc1ccccc1)C(=O)O)[C@@H](C)O)C(C)C [NA-CATH]
EC50 (S. aureus (ATCC 25923); [3]): 0.48 µM
EC50 (S. aureus (ATCC 25923); [4]): 2.85 mg/L
inhibition of biofilm formation [1]: ~ 50%
attachment of S. aureus to the wells [2]: did not decrease
bacterial growth (OD600 at 24 hours) (S. aureus): not decreased

CC[C@H](C)[C@H](NC(=O)[C@@H](NC(=O)[C@H](CCCCN)NC(=O)[C@H](CC(C)C)NC(=O)[C@H](CCCCN)NC(=O)[C@H](CCCCN)NC(=O)[C@H](Cc1ccccc1)NC(=O)[C@H](Cc1ccccc1)NC(=O)[C@H](CCCCN)NC(=O)[C@H](CCCCN)NC(=O)[C@H](Cc1ccccc1)NC(=O)[C@H](CCCNC(=N)N)NC(=O)[C@H](CCCCN)NC(=O)[C@H](CCCCN)NC(=O)[C@@H](NC(=O)[C@H](CO)NC(=O)[C@H](CC(N)=O)NC(=O)[C@H](CCCCN)NC(=O)[C@H](CC(C)C)NC(=O)[C@H](CCCCN)NC(=O)[C@H](CCCCN)NC(=O)[C@H](Cc1ccccc1)NC(=O)[C@H](Cc1ccccc1)NC(=O)[C@H](CCCCN)NC(=O)[C@H](CCCCN)NC(=O)[C@H](Cc1ccccc1)NC(=O)[C@H](CCCNC(=N)N)NC(=O)[C@@H](N)CCCCN)C(C)C)C(C)C)C(=O)NCC(=O)N[C@H](C(=O)N[C@H](C(=O)N[C@@H](Cc1ccccc1)C(=O)N1CCC[C@H]1C(=O)N[C@@H](Cc1ccccc1)C(=O)O)[C@@H](C)O)C(C)C [NA-CATH:ATRA1-ATRA1]
hemolysis (2% horse erythrocytes): did not elicit statistically significant hemolysis
attachment of S. aureus to the wells [2]: did not decrease
bacterial growth (OD600 at 24 hours) (S. aureus): not decreased

C[C@H](NC(=O)[C@H](CCCNC(=N)N)NC(=O)[C@@H](N)CCCCN)C(=O)N[C@@H](CCCCN)C(=O)N[C@@H](CCCCN)C(=O)N[C@@H](Cc1ccccc1)C(=O)N[C@@H](Cc1ccccc1)C(=O)N[C@@H](CCCCN)C(=O)N[C@@H](CCCCN)C(=O)N1CCC[C@H]1C(=O)N[C@@H](CCCCN)C(N)=O [ATRA-2]
EC50 (S. aureus (ATCC 25923); [3]): 7.77 µM
EC50 (S. aureus (ATCC 25923); [4]): 18.0 mg/L

CC(C)C[C@H](NC(=O)[C@H](CCCCN)NC(=O)[C@H](CCCCN)NC(=O)[C@H](Cc1ccccc1)NC(=O)[C@H](Cc1ccccc1)NC(=O)[C@H](CCCCN)NC(=O)[C@H](CCCCN)NC(=O)[C@H](Cc1ccccc1)NC(=O)[C@H](CCCNC(=N)N)NC(=O)[C@@H](N)CCCCN)C(=O)N[C@@H](CCCCN)C(N)=O [ATRA-1]
EC50 (S. aureus (ATCC 25923); [3]): 0.22 µM
EC50 (S. aureus (ATCC 25923); [4]): 0.52 mg/L
